Reference: US20250073251A1, “COMPOSITIONS AND METHODS AND USES THEREOF” (Journey Medical Corporation, priority 2019, published 2025)

Tested on: moderate-to-severe acne vulgaris
Conditions: human, in vivo

COc1ccc(-c2ccc3cc(C(=O)O)ccc3c2)cc1C12CC3CC(CC(C3)C1)C2 [0.3% adapalene foam]
Diastolic Blood Pressure, Mean: 72.7 mmHg | Systolic Blood Pressure, Mean: 115.4 mmHg and 115.9 mmHg and 116.3 mmHg | Systolic Blood Pressure, Median: 115.0 mmHg and 116.0 mmHg

“And” between values parts separate entries of the source, which are not always exact repeats. Equal entries are not always repeated.
